{"sequences": {"note": "The chains behind the UniProt entries cited, without tags or fusion partners.", "UniProt P08485, whole entry": "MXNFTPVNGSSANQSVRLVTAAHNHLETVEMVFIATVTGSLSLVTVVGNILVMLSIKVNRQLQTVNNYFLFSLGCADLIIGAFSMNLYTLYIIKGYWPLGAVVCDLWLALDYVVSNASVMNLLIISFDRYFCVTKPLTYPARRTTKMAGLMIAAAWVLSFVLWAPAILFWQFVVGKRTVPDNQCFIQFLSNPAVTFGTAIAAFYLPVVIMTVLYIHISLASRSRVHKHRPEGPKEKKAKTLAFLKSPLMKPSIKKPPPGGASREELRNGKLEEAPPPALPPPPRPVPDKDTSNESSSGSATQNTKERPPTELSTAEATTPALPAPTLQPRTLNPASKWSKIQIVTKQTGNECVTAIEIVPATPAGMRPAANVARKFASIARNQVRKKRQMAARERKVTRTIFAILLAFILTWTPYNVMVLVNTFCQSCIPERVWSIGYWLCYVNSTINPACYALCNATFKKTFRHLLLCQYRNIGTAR", "UniProt P08173, whole entry": "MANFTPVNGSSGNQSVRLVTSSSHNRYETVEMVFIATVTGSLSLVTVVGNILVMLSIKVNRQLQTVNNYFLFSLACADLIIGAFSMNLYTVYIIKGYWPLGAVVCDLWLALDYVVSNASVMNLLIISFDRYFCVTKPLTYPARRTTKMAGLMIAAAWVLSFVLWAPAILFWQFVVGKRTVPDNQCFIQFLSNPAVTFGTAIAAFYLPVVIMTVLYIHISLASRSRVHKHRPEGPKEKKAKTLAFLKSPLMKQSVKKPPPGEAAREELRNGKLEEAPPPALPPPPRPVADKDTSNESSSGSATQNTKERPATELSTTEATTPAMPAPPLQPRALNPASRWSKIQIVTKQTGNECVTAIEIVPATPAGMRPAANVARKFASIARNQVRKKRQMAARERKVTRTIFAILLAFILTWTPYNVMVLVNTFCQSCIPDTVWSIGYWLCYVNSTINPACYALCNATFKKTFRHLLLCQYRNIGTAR"}, "source": "ChEMBL document CHEMBL3872258", "about": "“Challenges in the development of an M4 PAM in vivo tool compound: The discovery of VU0467154 and unexpected DMPK profiles of close analogs” (Bioorg Med Chem Lett, 2017)", "key": {"[1]": {"biological_target": "Muscarinic acetylcholine receptor M4 (Rattus norvegicus, UniProt P08485)", "experiment": "Positive allosteric modulation of rat M4 receptor expressed in CHO cells co-expressing Gqui5 by calcium mobilization assay", "type": "functional, cell-based"}, "[2]": {"biological_target": "Muscarinic acetylcholine receptor M4 (Homo sapiens, UniProt P08173)", "experiment": "Positive allosteric modulation of human M4 receptor expressed in CHO cells co-expressing Gqui5 by calcium mobilization assay", "type": "functional, cell-based"}}, "data": [{"smiles": "Cc1nnc2sc(C(=O)NCc3ccc(S(=O)(=O)C(F)(F)F)cc3)c(N)c2c1C", "values": [{"measurement": "pEC50", "setting": "[1]", "value": 7.75}, {"measurement": "pEC50", "setting": "[2]", "value": 6.2}]}]}
